# Antibody variant affinities, Ab-91 heavy chain, assay 2

Source: Engelhart et al. 2022 (doi:10.1038/s41597-022-01779-4), MIT Lincoln Laboratory and A-Alpha Bio; data file from the FLAb repository.

The target is the same throughout: PDVDLGDISGINAS, from the HR2 region of SARS-CoV-2 spike.

Ab-91 is the parent antibody, in scFv form: VL, then the linker GGGGSGGGGSGGGGS, then VH. The light chain is unchanged in all variants.
VL: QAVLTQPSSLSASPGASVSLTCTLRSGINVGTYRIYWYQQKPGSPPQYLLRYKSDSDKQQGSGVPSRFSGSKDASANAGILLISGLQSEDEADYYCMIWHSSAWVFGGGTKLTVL
VH: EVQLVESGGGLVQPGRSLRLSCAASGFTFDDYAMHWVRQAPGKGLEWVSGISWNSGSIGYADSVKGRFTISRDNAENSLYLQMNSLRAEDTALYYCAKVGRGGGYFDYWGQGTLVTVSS

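Phage display of a naive human antibody library on the peptide gave the parent. AAYL51 was designed without a model: most single CDR substitutions and a random sample of double and triple ones. In AlphaSeq, yeast of one mating type display the scFv and yeast of the other type display the target. Binding brings cells together so that they mate, and sequencing counts the barcode pairs among the diploids. The ratio of observed to expected reads was calibrated, replicate by replicate, on BCL2-family standards whose Kd was known from biolayer interferometry. The assay was run in three technical replicates.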

Substitutions are numbered in sequence along the VH above, starting at 1 (not Kabat). The read-out is the apparent dissociation constant on a log10 scale (nM): the lower, the stronger. Averages over replicates are reported, and they cover detected replicates only. A pair that was not seen in that replicate is written "nd"; this usually means weak binding, but a binder can also be missed.

Variant I58R D62P F106C showed nd, nd, nd (controls 4 of 9).
Variant W53A G56W showed 1.62, 1.58, 1.13 (mean 1.44; controls 6 of 9).
Variant G56A G103D showed nd, nd, nd (controls 1 of 9).
Variant G50S S52P S57L showed nd, nd, nd (controls 2 of 9).
Variant T28Y S55V V64C showed nd, nd, nd (controls 1 of 9).
Variant A33N G59Y showed nd, 4.49, nd (controls 0 of 9).
Variant Y60G V64S G100I showed nd, nd, nd (controls 0 of 9).
Variant D30F D31K Y60H showed nd, nd, nd (controls 1 of 9).
Variant D30K D31A A61Y showed 3.04, 3.36, 3.58 (mean 3.33; controls 1 of 9).
Variant I51A G56P R101M showed 4.76, nd, 5.80 (mean 5.28; controls 3 of 9).
Variant Y32R R101D showed 4.35, 5.26, 4.69 (mean 4.77; controls 5 of 9).
Variant Y32V G50Q G104Y showed 4.72, nd, nd (controls 0 of 9).
Variant D31E I58M Y60G showed 4.78, nd, 4.23 (mean 4.51; controls 5 of 9).
Variant D30K G50H Y105F showed nd, nd, nd (controls 1 of 9).
Variant H35G I58T K65T showed 4.61, 4.02, 4.43 (mean 4.35; controls 6 of 9).
Variant F27K Y32N D107G showed nd, nd, nd (controls 0 of 9).
Variant H35R G104N showed nd, nd, nd (controls 1 of 9).
Variant T28Q G50R D62L showed nd, nd, nd (controls 0 of 9).
Variant F29M S57A V64Y showed nd, nd, 3.74 (controls 1 of 9).
Variant A33D G50P showed nd, nd, 5.79 (controls 2 of 9).
Variant M34Q W53S Y105V showed nd, nd, nd (controls 1 of 9).
Variant D31S S52Q G56A showed nd, nd, nd (controls 0 of 9).
Variant F27Y D62T D107S showed nd, nd, 4.19 (controls 0 of 9).
Variant A33H S57M R101Q showed 5.53, 6.32, 4.05 (mean 5.30; controls 2 of 9).
Variant G59A V99F Y108H showed 4.07, 4.22, 4.02 (mean 4.10; controls 3 of 9).
Variant D30G I51C D62I showed 4.38, nd, nd (controls 0 of 9).
Variant R101V showed 2.76, 2.44, 2.79 (mean 2.66; controls 1 of 9).
Variant Y32V D62Q G100R showed nd, nd, nd (controls 3 of 9).
Variant N54D A61S Y105F showed 0.63, 0.64, 0.12 (mean 0.46; controls 4 of 9).
Variant A33I S63T V64I showed nd, nd, nd (controls 0 of 9).
Variant G26M S55L A61L showed nd, 3.85, nd (controls 0 of 9).

The 2 strongest on average among those seen in every replicate, once more:

| changes | replicates, log10 nM | log10 Kd (nM), mean | control signals |
|---|---|---|---|
| N54D A61S Y105F | 0.63, 0.64, 0.12 | 0.46 | 4/9 |
| W53A G56W | 1.62, 1.58, 1.13 | 1.44 | 6/9 |

As a blank, each scFv also met three strains without target: over library AAYL51, 21% of these pairings were detected, typically at 4.54 and seldom below 3.26. Also given: how often the same scFv was detected with the empty control strains.